For 68 molecules, Ki results are on record in patent publication US7495109B2, “Nociceptin analogs” (dated 2009).

A value given as a limit tells only on which side of the number the result lay.

Broadly, the Ki is the equilibrium dissociation constant of an inhibitor or competing ligand from its target.

The target in the first test is Mu opioid receptor (Homo sapiens, UniProt P35372). As to the kind of experiment: Affinity at the μ receptor ([35S]GTPγS binding, membranes). The conditions noted are these: read-out: Mu Receptor Affinity calc Ki; Table 5; mu opioid receptor membrane solution.
On to `CCCC1CCC(N2CCC(n3c(=NC#N)n(CC)c4ccccc43)CC2)CC1` (stereo not shown), for which the inhibition constant Ki is 46 nM.

For the molecule `CCCC1CCC(N2CCC(n3c(=O)oc4ccccc43)CC2)CC1` (stereo not shown), the Ki is 145 nM.

Take `CCn1c(=NC#N)n(C2CCN(C(C)CCC(C)C)CC2)c2ccccc21` (stereo not shown): the inhibitory constant (Ki) is 15 nM.

As for `CC=C1C(=O)N(C2CCN(Cc3ccc4ccccc4c3)CC2)c2ccccc21`, the inhibition constant Ki is 137 nM.

`O=c1oc2ccccc2n1C1CCN(CCC(c2ccccc2)c2ccccc2)CC1`: the Ki is 726 nM.

Take `O=c1oc2ccccc2n1C1CCN(C2CCc3ccccc3C2)CC1` (stereo not shown): the inhibition constant (Ki) was 343 nM.

Regarding `CCn1c(=NC#N)n(C2CCN(C3CC4CCC3C4)CC2)c2ccccc21` (stereo not shown), the inhibition constant Ki is 1650 nM.

In the case of `CC=C1C(=O)N(C2CCN(Cc3ccc(OCc4ccccc4)cc3)CC2)c2ccccc21`, the Ki is 1150 nM.

As for `O=c1oc2ccccc2n1C1CCN(Cc2cccc3ccccc23)CC1`, the Ki is 340 nM.

The target in the next test is human opioid receptor-like receptor (ORL-1) (Homo sapiens, UniProt P41146). As to the kind of experiment: Nociceptin affinity at the ORL1 receptor ([35S]GTPgS binding, HEK-293 membranes). The conditions noted are these: read-out: Nociceptin Affinity calc Ki; Table 1; membranes from recombinant HEK-293 cells expressing human ORL-1.
Consider `O=c1oc2ccccc2n1C1CCN(Cc2ccc3ccccc3c2)CC1`, for which the Ki was 3030 nM.

As for `O=c1oc2ccccc2n1C1CCN(CC2CCCCCCC2)CC1`, the inhibition constant (Ki) was 64 nM.

In the case of `O=c1oc2ccccc2n1C1CCN(C2CCCCCCC2)CC1`, the inhibitory constant (Ki) was 16 nM.

Take `CC(C)CCC(C)N1CCC(n2c(=O)oc3ccccc32)CC1` (stereo not shown): the inhibition constant (Ki) was 60 nM.

Regarding `N#Cc1ccc(CN2CCC(n3c(=O)oc4ccccc43)CC2)cc1`, the inhibition constant (Ki) was more than 10000 nM.

As for `CC1(C)COC2(CCC(N3CCC(n4c(=O)oc5ccccc54)CC3)CC2)OC1`, the Ki is more than 10000 nM.

For the molecule `O=c1oc2ccccc2n1C1CCN(CCc2ccccc2)CC1`, the inhibition constant Ki was 7090 nM.

For `O=c1oc2ccccc2n1C1CCN(CCCC(c2ccc(F)cc2)c2ccc(F)cc2)CC1`, the inhibition constant (Ki) was 3070 nM.

Take `O=c1oc2ccccc2n1C1CCN(Cc2ccc(-c3ccccc3)cc2)CC1`: the Ki is more than 10000 nM.

With `O=c1oc2ccccc2n1C1CCN(Cc2ccc(OCc3ccccc3)cc2)CC1`, the Ki was 2170 nM.

For `O=c1oc2ccccc2n1C1CCN(CCC(c2ccccc2)c2ccccc2)CC1`, the Ki was 726 nM.

For the molecule `O=c1oc2ccccc2n1C1CCN(C2CCc3ccccc3C2)CC1` (stereo not shown), the inhibition constant Ki was 93 nM.

`O=c1oc2ccccc2n1C1CCN(C2c3ccccc3CCc3ccccc32)CC1`: the inhibition constant (Ki) was more than 10000 nM.

`O=c1oc2ccccc2n1C1CCN(C2Cc3ccccc3C2)CC1`: the Ki is 512 nM.

For `O=c1oc2ccccc2n1C1CCN(Cc2cccc3ccccc23)CC1`, the inhibitory constant (Ki) is 370 nM.

The test is the same for the next values; noted with them: read-out: Nociceptin Affinity calc Ki; Table 2; membranes from recombinant HEK-293 cells expressing human ORL-1.
Turning to `CC1CN(C2CCC3CCCCC3C2)CCC1N1C(=O)Cc2ccccc21` (stereo not shown), the Ki is 366 nM.

On to `O=C1Cc2ccccc2N1C1CCN(Cc2ccc3ccccc3c2)CC1`, for which the inhibition constant Ki was 107 nM.

With `CC(C)C1CCC(N2CCC(N3C(=O)Cc4ccccc43)C(C)C2)CC1` (stereo not shown), the Ki was 167 nM.

As to `CC=C1C(=O)N(C2CCN(Cc3ccc4ccccc4c3)CC2)c2ccccc21`, the inhibitory constant (Ki) was 630 nM.

For the molecule `O=C1Cc2ccccc2N1C1CCN(C2Cc3ccccc3C2)CC1`, the Ki is 18.7 nM.

For the molecule `CCC1C(=O)N(C2CCN(CC3CCCCCCC3)CC2)c2ccccc21` (stereo not shown), the inhibitory constant (Ki) was 9 nM.

Turning to `N#Cc1ccc(CN2CCC(N3C(=O)Cc4ccccc43)CC2)cc1`, the Ki is 1270 nM.

Regarding `CCC1C(=O)N(C2CCN(C3Cc4ccccc4C3)CC2)c2ccccc21` (stereo not shown), the Ki was 43 nM.

As to `CCC1C(=O)N(C2CCN(C3CCC4CCCCC4C3)CC2)c2ccccc21` (stereo not shown), the inhibitory constant (Ki) is 3.6 nM.

On to `O=C1Cc2ccccc2N1C1CCN(C2CCc3ccccc3C2)CC1` (stereo not shown), for which the Ki is 28.7 nM.

As for `CCC1C(=O)N(C2CCN(C(C)CCC(C)C)CC2)c2ccccc21` (stereo not shown), the Ki is 4 nM.

On to `O=C1Cc2ccccc2N1C1CCN(Cc2ccc(-c3ccccc3)cc2)CC1`, for which the Ki was 1360 nM.

As for `O=C1Cc2ccccc2N1C1CCN(C2CC3CCC2C3)CC1` (stereo not shown), the inhibition constant Ki was 215 nM.

Regarding `CC=C1C(=O)N(C2CCN(CC3CCCCCCC3)CC2)c2ccccc21`, the inhibition constant Ki was 22.3 nM.

Consider `CC(C)CCC(C)N1CCC(N2C(=O)Cc3ccccc32)CC1` (stereo not shown), for which the inhibition constant Ki is 7.4 nM.

In the case of `CCCC1CCC(N2CCC(N3C(=O)Cc4ccccc43)C(C)C2)CC1` (stereo not shown), the Ki is 2440 nM.

Regarding `O=C1Cc2ccccc2N1C1CCN(Cc2cccc3ccccc23)CC1`, the Ki is 92 nM.

With `CC=C1C(=O)N(C2CCN(Cc3ccc(C#N)cc3)CC2)c2ccccc21`, the Ki was 7650 nM.

With `CC1CN(Cc2ccccc2)CCC1N1C(=O)Cc2ccccc21` (stereo not shown), the inhibition constant (Ki) was more than 10000 nM.

As for `CC=C1C(=O)N(C2CCN(C(C)CCC(C)C)CC2)c2ccccc21` (stereo not shown), the Ki is 11.1 nM.

On to `CC=C1C(=O)N(C2CCN(Cc3ccccc3)CC2)c2ccccc21`, for which the inhibition constant (Ki) is 1850 nM.

On to `CCC1C(=O)N(C2CCN(C3CC4CCC3C4)CC2)c2ccccc21` (stereo not shown), for which the Ki is 82.7 nM.

Turning to `CCCC1CCC(N2CCC(N3C(=O)C(CC)c4ccccc43)CC2)CC1` (stereo not shown), the Ki was 40 nM.

On to `CC=C1C(=O)N(C2CCN(C3Cc4ccccc4C3)CC2)c2ccccc21`, for which the inhibitory constant (Ki) is 20.7 nM.

On to `CC=C1C(=O)N(C2CCN(Cc3ccc(OCc4ccccc4)cc3)CC2)c2ccccc21`, for which the inhibition constant Ki is 516 nM.

`CC(C)CCC(C)N1CCC(N2C(=O)Cc3ccccc32)C(C)C1` (stereo not shown): the inhibitory constant (Ki) was 4340 nM.

Turning to `CC=C1C(=O)N(C2CCN(C3CCC(CCC)CC3)CC2)c2ccccc21` (stereo not shown), the Ki is 19 nM.

For the molecule `O=C1Cc2ccccc2N1C1CCN(Cc2ccc(OCc3ccccc3)cc2)CC1`, the inhibition constant (Ki) was 32 nM.

Take `CC=C1C(=O)N(C2CCN(C3CC4CCC3C4)CC2)c2ccccc21` (stereo not shown): the inhibition constant (Ki) is 922 nM.

Take `CC1CN(CC2CCCCCCC2)CCC1N1C(=O)Cc2ccccc21` (stereo not shown): the inhibitory constant (Ki) was 189 nM.

The test is the same for the next values; noted with them: read-out: Nociceptin Affinity calc Ki; Table 4 (headed TABLE 45); membranes from recombinant HEK-293 cells expressing human ORL-1.
On to `CCCC1CCC(N2CCC(n3c(=NC#N)n(CC)c4ccccc43)CC2)CC1` (stereo not shown), for which the Ki was 241 nM.

Take `CCn1c(=NC#N)n(C2CCN(C3c4ccccc4CCc4ccccc43)CC2)c2ccccc21`: the inhibitory constant (Ki) is more than 10000 nM.

For `CCn1c(=NC#N)n(C2CCN(C(C)CCC(C)C)CC2)c2ccccc21` (stereo not shown), the inhibition constant (Ki) is 76 nM.

Consider `N#CCn1c(=NC#N)n(C2CCN(C3CCCCCCC3)CC2)c2ccccc21`, for which the inhibitory constant (Ki) was 0.97 nM.

As for `CN(C)CCn1c(=NC#N)n(C2CCN(C3CCCCCCC3)CC2)c2ccccc21`, the inhibition constant Ki was 18 nM.

Take `CS(=O)(=O)NCCn1c(=NC#N)n(C2CCN(C3CCCCCCC3)CC2)c2ccccc21`: the inhibition constant Ki was 78 nM.

For `N#CN=c1n(CCO)c2ccccc2n1C1CCN(C2CCCCCCC2)CC1`, the inhibitory constant (Ki) was 6.4 nM.

Regarding `N#CN=c1[nH]c2ccccc2n1C1CCN(C2CCCCCCC2)CC1CO` (stereo not shown), the inhibition constant (Ki) was 473 nM.

Regarding `CCn1c(=NC#N)n(C2CCN(C3CCC4CCCCC4C3)CC2)c2ccccc21` (stereo not shown), the Ki was 6.6 nM.

Take `CCn1c(=NC#N)n(C2CCN(Cc3ccc4ccccc4c3)CC2)c2ccccc21`: the Ki was 882 nM.

On to `CCn1c(=NC#N)n(C2CCN(Cc3ccc(OCc4ccccc4)cc3)CC2)c2ccccc21`, for which the Ki is 1660 nM.

Take `CCn1c(=NC#N)n(C2CCN(CCC(c3ccccc3)c3ccccc3)CC2)c2ccccc21`: the inhibition constant (Ki) is 80 nM.

As to `COC(=O)Cn1c(=NC#N)n(C2CCN(C3CCCCCCC3)CC2)c2ccccc21`, the inhibition constant (Ki) is 3.3 nM.

As for `CCn1c(=NC#N)n(C2CCN(Cc3ccc(-c4ccccc4)cc3)CC2)c2ccccc21`, the inhibition constant (Ki) was 5560 nM.

Consider `CCCCn1c(=NC#N)n(C2CCN(C3CCCCCCC3)CC2)c2ccccc21`, for which the inhibitory constant (Ki) was 1.36 nM.

On to `CCn1c(=NC#N)n(C2CCN(C3Cc4ccccc4C3)CC2)c2ccccc21`, for which the inhibition constant (Ki) is 89 nM.

Regarding `N#CN=c1[nH]c2cccnc2n1C1CCN(C2CCCCCCC2)CC1`, the inhibitory constant (Ki) was 3740 nM.

On to `CCn1c(=NC#N)n(C2CCN(C3CC4CCC3C4)CC2)c2ccccc21` (stereo not shown), for which the Ki is 323 nM.

Consider `CCn1c(=NC#N)n(C2CCN(C3CCC(C(C)C)CC3)CC2)c2ccccc21` (stereo not shown), for which the Ki is 6.9 nM.

As to `CCn1c(=NC#N)n(C2CCN(CC3CCCCCCC3)CC2)c2ccccc21`, the inhibitory constant (Ki) is 7.1 nM.

Consider `CCn1c(=NC#N)n(C2CCN(C3CCCCCCC3)CC2)c2ccccc21`, for which the inhibition constant (Ki) is 5.57 nM.

Regarding `N#CN=c1n(CC(=O)O)c2ccccc2n1C1CCN(C2CCCCCCC2)CC1`, the Ki is 201 nM.
